Tests used:
[1] = target: T1, cardiac histamine H2 receptor (Cavia porcellus, UniProt P47747); design: species or system guinea pig
T1 construct: isolated right atrium of the Guinea pig; from tissue; host or cells: isolated guinea pig right atrium

Amino acid sequences for entries named in this document (tags omitted).
UniProt P47747, whole entry: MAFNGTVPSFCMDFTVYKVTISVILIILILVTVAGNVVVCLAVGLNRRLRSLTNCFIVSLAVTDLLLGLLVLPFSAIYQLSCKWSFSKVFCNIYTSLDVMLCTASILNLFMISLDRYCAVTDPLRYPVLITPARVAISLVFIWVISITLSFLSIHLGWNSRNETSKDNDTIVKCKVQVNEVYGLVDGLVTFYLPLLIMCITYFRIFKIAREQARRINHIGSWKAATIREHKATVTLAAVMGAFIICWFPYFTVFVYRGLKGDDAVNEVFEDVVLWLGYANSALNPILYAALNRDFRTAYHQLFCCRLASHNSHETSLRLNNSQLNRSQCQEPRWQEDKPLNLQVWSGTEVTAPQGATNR

[2] = target: T2, gastric histamine H2 receptor (Cavia porcellus, UniProt P47747); design: species or system guinea pig
T2 construct: isolated stomach mucous membrane of the Guinea pig; from tissue; host or cells: isolated guinea pig stomach mucous membrane

## CN/C(=N/CCSCc1nc[nH]c1C)NC#N [cimetidine, 2-cyano-1-methyl-3-[2[(5-methylimidazol-4-yl)methylthio]ethyl]guanidine, reference compound]
[1]
  IC50: 0.4 µM
[2]
  IC50: 6.6 µM

Source: patent US4474790A, “Thioalkylamide of nicotinic acid 1-oxide, its salts, and pharmaceutical compositions” (SANOFI, priority 1981, dated 1984)
